{"sequences": {"note": "Sequences of proteins named here, by UniProt entry; tags and fusion partners are left off.", "UniProt P23975, whole entry": "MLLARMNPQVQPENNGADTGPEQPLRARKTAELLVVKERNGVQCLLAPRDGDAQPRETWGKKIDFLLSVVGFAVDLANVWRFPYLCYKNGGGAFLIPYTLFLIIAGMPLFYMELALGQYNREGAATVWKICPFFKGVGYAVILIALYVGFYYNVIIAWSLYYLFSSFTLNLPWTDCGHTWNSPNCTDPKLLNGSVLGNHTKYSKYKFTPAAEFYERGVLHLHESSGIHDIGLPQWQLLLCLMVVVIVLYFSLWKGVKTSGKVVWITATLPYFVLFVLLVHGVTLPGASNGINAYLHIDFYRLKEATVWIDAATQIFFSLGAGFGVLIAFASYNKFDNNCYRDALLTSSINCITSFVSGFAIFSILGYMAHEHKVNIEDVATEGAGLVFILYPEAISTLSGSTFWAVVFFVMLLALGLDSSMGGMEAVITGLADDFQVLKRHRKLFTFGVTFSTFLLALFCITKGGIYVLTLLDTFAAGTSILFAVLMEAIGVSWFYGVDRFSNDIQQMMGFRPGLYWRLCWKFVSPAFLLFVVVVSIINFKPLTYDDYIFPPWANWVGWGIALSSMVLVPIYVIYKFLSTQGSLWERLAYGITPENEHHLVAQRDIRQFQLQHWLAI", "UniProt P31645, whole entry": "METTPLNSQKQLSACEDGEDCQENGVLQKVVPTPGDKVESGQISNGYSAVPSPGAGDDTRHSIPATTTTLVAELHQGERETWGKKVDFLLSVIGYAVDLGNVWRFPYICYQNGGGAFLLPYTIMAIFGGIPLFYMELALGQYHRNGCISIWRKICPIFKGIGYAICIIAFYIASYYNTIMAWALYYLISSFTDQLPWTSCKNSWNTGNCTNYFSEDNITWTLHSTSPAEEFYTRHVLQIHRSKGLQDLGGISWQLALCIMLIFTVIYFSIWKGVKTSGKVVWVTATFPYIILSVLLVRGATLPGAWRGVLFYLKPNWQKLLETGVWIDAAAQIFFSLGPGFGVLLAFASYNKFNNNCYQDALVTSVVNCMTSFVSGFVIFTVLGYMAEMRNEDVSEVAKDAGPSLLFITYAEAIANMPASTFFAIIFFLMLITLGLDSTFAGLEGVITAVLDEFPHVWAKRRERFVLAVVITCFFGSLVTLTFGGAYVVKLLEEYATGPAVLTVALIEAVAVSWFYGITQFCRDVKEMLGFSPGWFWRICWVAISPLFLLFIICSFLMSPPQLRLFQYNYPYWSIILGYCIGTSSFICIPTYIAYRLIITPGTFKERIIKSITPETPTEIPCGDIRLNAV"}, "source": "patent US20090215857A1", "about": "(Pfizer Products Inc., priority 2005, published 2009)", "key": {"[1]": {"target": "T1, human norepinephrine transporter (Homo sapiens, UniProt P23975)", "T1 construct": "expressed in transfected cells; host or cells: HEK-293", "experiment": "hNET receptor binding ([125I]-RTI-55 radioligand)", "conditions": "membranes of HEK-293 cells transfected with human norepinephrine transporter cDNA; 50 pM [125I]-RTI-55; IC50 converted by Cheng-Prusoff; read-out: NET Ki", "method": "(§1) Cell pastes of HEK-293 cells transfected with a human norepinephrine transporter cDNA were prepared. The cell pastes were resuspended in 400 to 700 ml of Krebs-HEPES assay buffer (25 mM HEPES, 122 mM NaCl, 3 mM KCl, 1.2 mM MgSO4, 1.3 mM CaCl2, and 11 mM glucose, pH 7.4) with a Polytron homogenizer at setting 7 for 30 seconds. Aliquots of membranes (5 mg/ml protein) were stored in liquid nitrogen until used.\nThe binding assay was set up in Beckman deep-well polypropylene plates with a total volume of 250 μl containing: test compound (10^−5M to 10^−12M), cell membranes, and 50 pM [^125I]-RTI-55 (Perkin Elmer, NEX-272; specific activity 2200 Ci/mmol). The reaction was incubated by gentle agitation for 90 minutes at room temperature and was terminated by filtration through Whatman GF/C filter plates using a Brandel 96-well plate harvester. Scintillation fluid (100 μl) was added to each well, and bound [^125I]-RTI-55 was determined using a Wallac Trilux Beta Plate Counter. Test compounds were run in duplicate, and specific binding was defined as the difference between binding in the presence and absence of 10 μM desipramine.\nExcel and GraphPad Prism software were used for data calculation and analysis. IC50 values were converted to K, values using the Cheng-Prusoff equation."}, "[2]": {"target": "T2, human serotonin transporter (Homo sapiens, UniProt P31645)", "T2 construct": "expressed in transfected cells; host or cells: HEK-293", "experiment": "hSERT receptor binding ([125I]-RTI-55 radioligand)", "conditions": "membranes of HEK-293 cells transfected with human serotonin transporter cDNA; 50 pM [125I]-RTI-55; IC50 converted by Cheng-Prusoff; read-out: SERT Ki", "method": "as §1, with “serotonin” for “norepinephrine”, “Setting” for “setting”, “(˜2.5” for “(5”\nAssays were set up in FlashPlates pre-coated with 0.1% PEI in a total volume of 250 μl containing: test compound (10^−5M to 10^−12M), cell membranes, and 50 pM [^125I]-RTI-55 (Perkin Elmer, NEX-272; specific activity 2200 Ci/mmol). The reaction was incubated and gently agitated for 90 minutes at room temperature, and terminated by removal of assay volume. Plates were covered, and bound [^125I]-RTI-55 was determined using a Wallac Trilux Beta Plate Counter. Test compounds were run in duplicate, and specific binding was defined as the difference between binding in the presence and absence of 10 μM citalopram.\nExcel and GraphPad Prism software were used for data calculation and analysis. IC50 values were converted to Ki values using the Cheng-Prusoff equation."}}, "data": [{"substance": "(S)-3-(4-Fluoro-2′-methoxy-5′-biphenyl-2-ylmethoxy)-pyrrolidine [Example D-96]", "values": [{"measurement": "Ki", "setting": "[1]", "result": 591, "unit": "nM"}, {"measurement": "Ki", "setting": "[2]", "result": 1380, "unit": "nM"}]}]}
